Assay results reported in US9828368B2 (MERCK SHARP & DOHME CORP., priority 2013, dated 2017).

Sequences of proteins named here, by UniProt entry; tags and fusion partners are left off.
UniProt O43614, whole entry: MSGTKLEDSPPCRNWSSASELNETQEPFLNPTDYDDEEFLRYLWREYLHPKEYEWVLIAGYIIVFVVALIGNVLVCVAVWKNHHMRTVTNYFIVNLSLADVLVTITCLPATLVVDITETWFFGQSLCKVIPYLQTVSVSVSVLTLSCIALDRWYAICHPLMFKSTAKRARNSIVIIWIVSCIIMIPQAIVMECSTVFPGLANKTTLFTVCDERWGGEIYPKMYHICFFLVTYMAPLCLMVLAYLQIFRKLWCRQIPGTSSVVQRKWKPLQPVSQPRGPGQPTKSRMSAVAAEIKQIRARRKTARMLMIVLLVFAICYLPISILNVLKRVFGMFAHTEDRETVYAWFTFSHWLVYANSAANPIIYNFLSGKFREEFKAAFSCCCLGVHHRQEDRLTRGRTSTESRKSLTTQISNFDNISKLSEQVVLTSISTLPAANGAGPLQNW

Target: human orexin-2 receptor (Homo sapiens (Human), UniProt O43614)
Assay: FLIPR Ca2+ flux assay, hOX2R
Assay type: cell-based
Settings: CHO cells expressing human orexin-2 receptor; agonist 70 pM Ala-6,12 orexin-A
Description: In a typical experiment the OX1 and OX2 receptor antagonistic activity of the compounds of the present invention was determined in accordance with the following experimental method. For intracellular calcium measurements, Chinese hamster ovary (CHO) cells expressing the rat orexin-1 receptor or the human orexin-2 receptor, are grown in Iscove's modified DMEM containing 2 mM L-glutamine, […], 1% hypoxanthine-thymidine supplement, 100 U/ml penicillin, 100 μg/ml streptomycin and 10% heat-inactivated fetal calf serum (FCS). The cells are seeded at 20,000 cells/well into Becton-Dickinson black 384-well clear bottom sterile plates coated with poly-D-lysine. All reagents were from GIBCO-Invitrogen Corp. The seeded plates are incubated overnight at 37° C. and 5% CO2. […] Within the Fluorescent Imaging Plate Reader (FLIPR, Molecular Devices), test compounds are added to the plate in a volume of 25 μl, incubated for 5 min and finally 25 μl of agonist is added. Fluorescence is measured for each well at 1 second intervals for 5 minutes and the height of each fluorescence peak is compared to the height of the fluorescence peak induced by 70 pM Ala-6,12 orexin-A with buffer in place of antagonist. […] The intrinsic orexin receptor antagonist activity of a compound which may be used in the present invention may be determined by these assays.

CC[C@](C)(O)c1nc([C@@H]2CC[C@@H](C)N(C(=O)c3ccsc3-n3nccn3)C2)oc1C [Example 49, (2-(2H-1,2,3-triazol-2-yl)thiophen-3-yl)((2R,5R)-5-(4-((S)-2-hydroxybutan-2-yl)-5-methyloxazol-2-yl)-2-methylpiperidin-1-yl)methanone]
IC50: 16 nM
